Two compounds from ChEMBL document CHEMBL1150977, “A quantitative analysis of kinase inhibitor selectivity” (Nat Biotechnol, 2008) can be followed below.

Chains of the proteins cited; added tags and fusions are not shown. Lines headed by an entry give the natural chain unless they say otherwise; changes in a name come on top.
UniProt Q05655: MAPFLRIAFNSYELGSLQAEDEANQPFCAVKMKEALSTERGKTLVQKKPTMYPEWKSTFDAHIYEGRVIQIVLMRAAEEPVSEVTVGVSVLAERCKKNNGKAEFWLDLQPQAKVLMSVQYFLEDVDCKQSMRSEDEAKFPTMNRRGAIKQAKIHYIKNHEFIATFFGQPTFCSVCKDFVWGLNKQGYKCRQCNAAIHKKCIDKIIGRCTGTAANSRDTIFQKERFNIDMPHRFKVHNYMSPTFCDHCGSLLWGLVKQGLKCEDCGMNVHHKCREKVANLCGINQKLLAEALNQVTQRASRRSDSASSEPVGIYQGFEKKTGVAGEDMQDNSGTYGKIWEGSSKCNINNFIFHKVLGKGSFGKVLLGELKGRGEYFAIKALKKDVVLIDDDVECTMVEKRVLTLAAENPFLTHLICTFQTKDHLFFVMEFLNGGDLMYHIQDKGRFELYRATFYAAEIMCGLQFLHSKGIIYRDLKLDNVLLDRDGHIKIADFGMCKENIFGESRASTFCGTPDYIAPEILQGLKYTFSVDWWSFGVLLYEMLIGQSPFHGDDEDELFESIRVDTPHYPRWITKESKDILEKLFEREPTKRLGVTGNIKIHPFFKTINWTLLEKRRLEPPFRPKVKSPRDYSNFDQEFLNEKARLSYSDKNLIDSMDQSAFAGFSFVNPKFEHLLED
UniProt P48730: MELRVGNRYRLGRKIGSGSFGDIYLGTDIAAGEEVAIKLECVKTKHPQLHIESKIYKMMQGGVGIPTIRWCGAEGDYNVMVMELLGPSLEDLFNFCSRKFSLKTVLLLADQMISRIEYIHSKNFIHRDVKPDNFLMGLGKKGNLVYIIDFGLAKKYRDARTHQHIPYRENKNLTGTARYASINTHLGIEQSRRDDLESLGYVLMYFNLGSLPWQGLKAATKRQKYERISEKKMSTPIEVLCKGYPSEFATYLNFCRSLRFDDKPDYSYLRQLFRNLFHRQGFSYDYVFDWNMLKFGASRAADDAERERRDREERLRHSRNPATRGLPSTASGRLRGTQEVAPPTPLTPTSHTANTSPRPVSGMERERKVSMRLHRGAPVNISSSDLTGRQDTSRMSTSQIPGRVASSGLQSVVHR

Molecules are shown by their SMILES.

The target in assay [1] is T1, Serine/threonine-protein kinase 17A (Homo sapiens, UniProt Q9UEE5).
T1 sequence (Q9UEE5 whole entry): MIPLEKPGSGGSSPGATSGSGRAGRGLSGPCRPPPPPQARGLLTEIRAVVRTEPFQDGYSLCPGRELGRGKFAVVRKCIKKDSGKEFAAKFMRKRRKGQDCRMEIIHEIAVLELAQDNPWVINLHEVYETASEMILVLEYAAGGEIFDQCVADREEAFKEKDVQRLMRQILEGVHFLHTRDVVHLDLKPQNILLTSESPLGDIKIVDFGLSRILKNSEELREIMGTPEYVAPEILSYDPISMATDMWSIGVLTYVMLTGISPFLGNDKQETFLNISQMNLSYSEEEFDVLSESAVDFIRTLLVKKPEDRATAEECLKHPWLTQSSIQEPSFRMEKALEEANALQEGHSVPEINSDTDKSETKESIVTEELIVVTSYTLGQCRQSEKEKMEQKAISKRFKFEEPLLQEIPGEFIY

In assay [2] the target is Protein kinase C delta type (Homo sapiens, UniProt Q05655).
Assay [3] addresses Casein kinase I isoform delta (Homo sapiens, UniProt P48730).

What is called Kd is a measure of binding affinity in units of concentration.

For the compound `CCOc1cc2ncc(C#N)c(Nc3ccc(F)c(Cl)c3)c2cc1NC(=O)/C=C/CN(C)C` [PELITINIB], the Kd in assay [1] was 200 nM; in assay [2], 4.6 µM.
As to `NC(=O)c1ccc(-c2nc(-c3ccc4c(c3)OCO4)c(-c3ccccn3)[nH]2)cc1` [SB-431542], in assay [3], the Kd worked out at 170 nM.
